Data from patent US20260384411A1, “SALT FORM AND CRYSTAL FORM OF PYRIDINE MULTI-SUBSTITUTED COMPOUND AND PREPARATION METHOD THEREFOR” (published 2026).
Blank lines part the entries; values can stand above or below the compound they belong to.

Sequences of proteins named here, by UniProt entry; tags and fusion partners are left off. Residues count along the entry.
UniProt P29597, 575-869 limits assumed: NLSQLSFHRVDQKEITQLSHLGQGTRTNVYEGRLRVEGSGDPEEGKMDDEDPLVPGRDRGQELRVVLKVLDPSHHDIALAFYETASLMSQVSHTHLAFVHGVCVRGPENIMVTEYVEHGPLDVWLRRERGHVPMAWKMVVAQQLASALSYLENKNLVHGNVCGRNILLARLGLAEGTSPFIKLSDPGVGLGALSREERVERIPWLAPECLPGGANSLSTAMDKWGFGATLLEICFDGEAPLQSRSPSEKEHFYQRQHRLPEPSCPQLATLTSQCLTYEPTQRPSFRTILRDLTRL

Key:
[1] = biological target: Tyk2 JH2 (His-TVMV-TYK2 JH2 (575-869)) (Homo sapiens, UniProt P29597); test: Tyk2 JH2 enzyme activity test (HTRF, fluorescein-labeled kinase tracer, terbium-labeled His antibody)
Method: To a buffer solution containing 20 mM of Hepes pH 7.5, 10 mM of MgCl2, 0.015% of Brij-35, 2 mM of DTT and 50 μg/mL of BSA were added 0.5 nM of TYK2 protein (His-TVMV-TYK2 JH2 (575-869)), 0.2 nM of terbium-labeled His antibody, fluorescein-labeled kinase tracer at the relevant Kα value, and the test compound. The test system was incubated at room temperature for 90 minutes. Subsequently, the generated HTRF (homogeneous time-resolved fluorescence) signal, i.e., the ratio of the fluorescence intensity of the fluorescein acceptor (520 nm) and the terbium donor (495 nm) at the emission wavelength, was measured on an Envision plate reader, and the IC50 value was calculated based on this.

[2] = system: IFNα-stimulated phosphorylated STAT1 (human peripheral blood mononuclear cells); test: IFNα-stimulated phosphorylation STAT1 assay in hPBMC (CD4+ T cells, flow cytometry); settings: result in words
Method: Human peripheral blood mononuclear cells (hPBMC) were seeded at a cell density of 1×10^5 cells/well and placed in an incubator at 37 °C for 90 minutes. Then different concentrations of compounds were added to the cells, wherein the concentration range of each compound started from 2 μM, which was serially diluted 5-fold to obtain a total of 8 concentration gradients. The compounds and cells were incubated at 37 °C for 30 minutes. hPBMC were stimulated with IFN-α (1000 U/ml), and then the level of phosphorylated STAT1 in CD4+ T cells was detected by flow cytometry to evaluate the inhibitory activity of the compound on the IFN-α pathway. The results of the in vitro cell activity assay of the free base of the compound of the present disclosure are shown in Table 4: […]

[3] = Phase III, massive psoriasis; result in words; cited from earlier work
[4] = Solid stability test of crystal form A (XRPD)
Method: • Instrument model: Empyrean X-ray diffractometer
Test method: an appropriate amount of sample was evenly spreaded on a single crystal silicon sample plate and the XRPD test was performed using the following parameters.
The detailed XRPD parameters are as follows: • Instrument name: X-ray powder diffraction • Instrument manufacturer: Malvern Panalytical Co., Ltd. • Method parameters: • X-ray: Cu, kα, Kα1 (Å): 1.54060; Kα2 (Å): 1.54443; Kα2/Kα1 intensity ratio: 0.50 • X-ray tube settings: 45 kV, 40 mA • Divergence slit: fixed ⅛° • Anti-scatter slit: ¼° • Detector slit: P7.5 • Scan mode: Continuous • Scanning range (° 2Theta): 3-40 • Scan time per step(s): 46.665 • Scan step (° 2Theta): 0.0263 • Test time (min): 5
About 1.5 g of crystal form A of the compound of formula (I) was respectively weighed, placed at the bottom of a glass sample bottle, and spread into a thin layer. The sample was completely exposed. The samples that were placed at high temperature and high humidity were sampled and tested on the 10th day and 30th day (XRPD). For illumination, the samples were placed in a clean surface dish, spread into a thin layer, and covered with a quartz glass cover, and then sampled and tested on the 5th day and 10th day (XRPD). For long-term tests and accelerated tests (dark), each sample was placed in a double-layer LDPE bag, and each layer of the LDPE bag was sealed with buckles. Then the LDPE bag was placed in an aluminum foil bag that has been added with a bag of desiccant. The aluminum foil bag was heat-sealed, and placed under 25 °C/60% RH, 30 °C/65% RH and 40 °C/75% RH conditions for inspection. The test results were compared with the initial test results of Day 0.

IC50 ([1]; read-out: Tyk2 JH2 IC50, room temperature, 90 minutes incubation, 0.5 nM TYK2 protein): 0.04 nM
inhibitory activity against Tyk2 JH2 (conclusion) ([1]; result in words): strong inhibitory activity
Compound: [2H]C([2H])([2H])CC(=O)c1cnc(NC(=O)C2CC2)cc1Nc1cccc(-c2cnc(N=S(C)(C)=O)cn2)c1OC
Tyk2-related cellular activity on IFNα-stimulated phosphorylated STAT1 (conclusion) [2]: strong Tyk2-related cellular activity

Compound: CNC(=O)c1nnc(NC(=O)C2CC2)cc1Nc1cccc(-c2ncn(C)n2)c1OC
safety [3]: good safety

Crystal form ([4]; 25 °C/60% RH, 3 M): form A
Crystal form ([4]; 25 °C/60% RH, 6 M): form A
Crystal form ([4]; 30 °C/65% RH, 1 M): form A
Crystal form ([4]; 30 °C/65% RH, 3 M): form A
Crystal form ([4]; 30 °C/65% RH, 6 M): form A
Crystal form ([4]; 40 °C/75% RH, 1 M): form A
Crystal form ([4]; 40 °C/75% RH, 3 M): form A
Crystal form ([4]; 40 °C/75% RH, 6 M): form A
Crystal form ([4]; Day 0 (initial)): form A
Crystal form ([4]; High humidity (25 °C/relative humidity 92.5%), Day 10): form A
Crystal form ([4]; High humidity (25 °C/relative humidity 92.5%), Day 30): form A
Crystal form ([4]; High temperature (60 °C), Day 10): form A
Crystal form ([4]; High temperature (60 °C), Day 30): form A
Crystal form ([4]; Strong illumination (5000 lx and UV intensity 90 w/cm^2, open), Day 5): form A
Crystal form ([4]; Strong illumination (5000 lx and UV intensity 90 w/cm^2, open), Day 10): form A
stability (conclusion) ([4]; high temperature, high humidity, strong illumination, long-term accelerated test conditions, result in words): good stability
Compound: Cl.[2H]C([2H])([2H])CC(=O)c1cnc(NC(=O)C2CC2)cc1Nc1cccc(-c2cnc(N=S(C)(C)=O)cn2)c1OC
